Laboratory results as given in patent US7033773B1, “Screening assays for G protein coupled receptor agonists and antagonists” (The General Hospital Corporation, priority 1997, dated 2006).

Assays:
[1] = biological target: T1, rat PTHR (Rattus norvegicus, UniProt P25961); experiment: Cellular cAMP accumulation in LLC-PK1 cells expressing rat PTHR; format: cell-based; conditions: for cAMP Accumulation (maximal response): 1000 nM, mean±SD
T1 construct: expressed in transfected cells; host or cells: LLC-PK1 porcine renal epithelial cells (EW5; also EW29, AR-C38, AR-B44)
T1 sequence (P25961 27-591): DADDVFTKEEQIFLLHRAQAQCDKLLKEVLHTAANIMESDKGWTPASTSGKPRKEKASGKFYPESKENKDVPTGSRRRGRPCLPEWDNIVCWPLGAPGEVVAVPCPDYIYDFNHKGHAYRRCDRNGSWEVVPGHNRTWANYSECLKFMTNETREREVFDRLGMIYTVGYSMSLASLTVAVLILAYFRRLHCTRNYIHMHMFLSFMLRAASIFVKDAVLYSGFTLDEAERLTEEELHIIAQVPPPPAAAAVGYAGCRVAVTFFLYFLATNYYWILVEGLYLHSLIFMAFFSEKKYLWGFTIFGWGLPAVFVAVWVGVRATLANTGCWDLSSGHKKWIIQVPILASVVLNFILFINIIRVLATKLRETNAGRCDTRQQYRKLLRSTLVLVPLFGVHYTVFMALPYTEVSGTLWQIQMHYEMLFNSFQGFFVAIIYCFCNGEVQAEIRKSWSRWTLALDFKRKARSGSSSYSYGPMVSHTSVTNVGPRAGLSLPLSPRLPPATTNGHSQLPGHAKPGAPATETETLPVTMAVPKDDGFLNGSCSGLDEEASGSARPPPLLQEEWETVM
Method: FIG. 10. Stimulation of cyclic AMP accumulation by hPTH(1-31) and hPTH(1-34) in LLC-PK1 cells that express rat PTHRs. Cyclic AMP accumulation was measured in response to hPTH(1-34) (●) or hPTH(1-31) (Δ) in EW5 cells that expressed 320,000 rat PTHRs per cell. Results are expressed as fold basal.
Cells were seeded into 24-well plates at a density of 2.5×10^5 cells/well and cultured for a further 2 days before study. The cells were rinsed once with 0.5 ml of ice-cold Buffer B [10 mM HEPES (pH 7.4), 130 mM NaCl, 5 mM KCl, 1.2 mM CaCl2, 1 mM MgCl2, 1.2 mM Na2HPO^4 5 mM glucose, and 0.1% heat-inactivated BSA] supplemented with 1 mM isobtylmethylxanthine (IBMX), and placed on ice. Treatments were added to each well in 0.25 ml of IBMX-supplemented Buffer B, after which the plates were incubated at 37° C. for 15 min. The buffer then was rapidly aspirated, the plates were rapidly transferred onto liquid nitrogen, and the frozen monolayers were subsequently thawed directly into 0.5 ml of 50 mM HCl. The extracted cAMP then was measured using a commercial RIA kit (Dupont-New England Nuclear, Boston, Mass.). Results were expressed as fold-basal, where basal levels ranged between 38 and 128 pmol/mg protein/15 min. The basal level of cAMP accumulation in native LLC-PK1 cells was not consistently altered in subclones that expressed wild type PTH/PTHrp receptors.

[2] = biological target: T1, rat PTHR; experiment: Cellular phosphate uptake in LLC-PK1 cells expressing rat PTHR; format: cell-based; conditions: EW5 cells
Method: Cells were seeded into 24-well plates at a density of 2.5×10^5 cells/well and cultured for a further 2 days before study. Twenty four hours before assay, cells were refed with 0.5 ml of DMEM containing 0.1% BSA. The next day, cells were refed with serum-free medium (DMEM+0.1% BSA) containing drugs or peptides, and the incubations were continued at 37° C. under 5% CO2 in air for another 6 hr. Cells then were washed with prewarmed Buffer B without BSA and Na2HPO4 and then were incubated at 37° C. for 5 min in 0.25 ml of the same buffer containing [^32P]orthophosphate (4 uCi/ml) and 0.1 mM Na2HPO4. Phosphate uptake was arrested by adding 1 ml of ice-cold sodium-free “stop buffer” [10 mM HEPES (pH 7.4), 140 mM choline chloride, and 5 mM sodium arsenate], followed by two further washes with same buffer. The drained cell layer then was solubilized in 0.5 ml of Lysis Buffer, and cell-associated radioactivity was determined by Cerenkov counting, as previously described (Guo, J., et al., Endocrinology 136:3884-3891 (1995)).
Responses to hPTH(1-34) or hPTH(1-31) (1000 nM) were measured in EW5 cells, which express 320,000 rat PTHRs per cell. Each value is the mean±SEM of a representative experiment performed in triplicate. Similar results were obtained in at least 3 individual experiments. […]

activation of AC (in words) ([1]; EW5 cells): activated AC equivalently
cAMP Accumulation (maximal response) ([1]; EW5 cells (rat receptor)): 130 ± 6 fold basal
cAMP Accumulation (maximal response) ([1]; EW29 cells (rat receptor)): 148 ± 16 fold basal
stimulation of phosphate uptake (in words) [2]: identical
Structure (SMILES): CC[C@H](C)[C@H](NC(=O)[C@H](CCC(=O)O)NC(=O)[C@H](CO)NC(=O)[C@@H](NC(=O)[C@@H](N)CO)C(C)C)C(=O)N[C@@H](CCC(N)=O)C(=O)N[C@@H](CC(C)C)C(=O)N[C@@H](CCSC)C(=O)N[C@@H](Cc1c[nH]cn1)C(=O)N[C@@H](CC(N)=O)C(=O)N[C@@H](CC(C)C)C(=O)NCC(=O)N[C@@H](CCCCN)C(=O)N[C@@H](Cc1c[nH]cn1)C(=O)N[C@@H](CC(C)C)C(=O)N[C@@H](CC(N)=O)C(=O)N[C@@H](CO)C(=O)N[C@@H](CCSC)C(=O)N[C@@H](CCC(=O)O)C(=O)N[C@@H](CCCNC(=N)N)C(=O)N[C@H](C(=O)N[C@@H](CCC(=O)O)C(=O)N[C@@H](Cc1c[nH]c2ccccc12)C(=O)N[C@@H](CC(C)C)C(=O)N[C@@H](CCCNC(=N)N)C(=O)N[C@@H](CCCCN)C(=O)N[C@@H](CCCCN)C(=O)N[C@@H](CC(C)C)C(=O)N[C@@H](CCC(N)=O)C(=O)N[C@@H](CC(=O)O)C(=O)N[C@H](C(=O)N[C@@H](Cc1c[nH]cn1)C(=O)N[C@@H](CC(N)=O)C(=O)N[C@@H](Cc1ccc(O)cc1)C(N)=O)C(C)C)C(C)C [hPTH(1-34), [Tyr^34]hPTH(1-34)]
